Reference: PubChem BioAssay (NCI)
This is a selection; strong and weak results do not stand in their true shares. Some compounds were tested as several samples or in several runs, with calls that do not always agree. Activity calls are given as the source filed them. Rule as the data show it: active = growth inhibition above about 70%; inactive = the rest.

Legend:
[1] = NCI Yeast Anticancer Drug Screen. Data for the rad50 strain (AID 155);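 also: 0% = growth of vehicle-only cultures of the same strain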; conditions: S. cerevisiae rad50 strain growth inhibition; at 50.0 µM; active compounds read high
[2] = NCI Yeast Anticancer Drug Screen. Data for the mec2-1 strain (AID 157); conditions: S. cerevisiae mec2-1 strain, at 50.0 µM, active compounds read high
[3] = NCI Yeast Anticancer Drug Screen. Data for the sgs1 mgt1 strain (AID 161);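 also: 0% = growth of cultures given vehicle only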; conditions: S. cerevisiae sgs1 mgt1 strain, at 50.0 µM, active compounds read high
[4] = NCI Yeast Anticancer Drug Screen. Data for the cln2 rad14 strain (AID 165);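 also: 0% = growth equal to vehicle treated cultures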; conditions: S. cerevisiae cln2 rad14 strain, at 50.0 µM, active compounds read high
[5] = NCI Yeast Anticancer Drug Screen. Data for the bub3 strain (AID 167); conditions: S. cerevisiae bub3 mutant strain, at 50.0 µM, active compounds read high
[6] = NCI Yeast Anticancer Drug Screen. Data for the mlh1 rad18 strain (AID 175); conditions: S. cerevisiae mlh1 rad18 strain growth inhibition; at 50.0 µM; active compounds read high

Measured: growth inhibition

O=P1(Cl)OC(c2ccccc2)=CCN1CCCl (stereo not given)
inactive: [1] -6.85% | [2] 0.45% | [3] 1.25% | [4] -31.4% | [5] -6.9% | [6] 8.65%

NC(CC(=O)O)C(=O)O (stereo not given)
inactive: [1] 4.8% | [2] -15.3% | [3] 4.9% | [4] -1.5% | [5] 16.1% | [6] -3.65%

S=P(Cl)(Oc1ccc(Cl)cc1)Oc1ccc(Cl)cc1
inactive: [1] -5.55% | [2] 13% | [3] 12.3% | [4] -4.55% | [5] -0.65% | [6] 14.3%

O=C1C(O)=C([N+](=O)[O-])C(=O)C(O)=C1[N+](=O)[O-]
inactive: [1] 3.55% | [2] 25.6% | [3] 10.6% | [4] 1.65% | [5] 16.9% | [6] 31%

COc1ccc(S(=O)(=O)N(CCCl)CCCl)cc1
inactive: [1] -14.9% | [2] 4.9% | [3] -5% | [4] -30.4% | [5] 45.8% | [6] 5.55%

CCCOP(=S)(Nc1ccc(C)cn1)OCCC
inactive: [1] 4.75% | [2] -2.5% | [3] 17.2% | [4] -34.3% | [5] 6.05% | [6] -0.65%

C[N+](CCCl)(CCCl)Cc1ccccc1[N+](=O)[O-]
inactive: [1] -42.5% | [2] -23.9% | [3] -30.2% | [4] 19.9% | [5] -6% | [6] -29.1%

[N-]=[N+]=NCC(N)=O
inactive: [1] -3.1% | [2] -10.8% | [3] -2.5% | [4] -4.05% | [5] 1.35% | [6] -3.3%

N#CC1=C(C#N)NP(=O)(N(CCCl)CCCl)N1
inactive: [1] -9.15% | [2] -1.05% | [3] 6.7% | [4] 12.4% | [5] -4.85% | [6] 3.25%

CCCCOP(=O)(N=C(N)N)OCCCC
inactive: [1] -10.6% | [2] -1.85% | [3] 16.2% | [4] 0% | [5] 6% | [6] 1.45%

O=[N+]([O-])c1ccc(N/N=C(/C=N/Nc2ccc([N+](=O)[O-])cc2[N+](=O)[O-])C(O)C(O)C(O)CO)c([N+](=O)[O-])c1 (stereo not given)
inactive: [1] 41.9% | [2] 21.2% | [3] 9.1% | [4] 1.6% | [5] 0.95% | [6] 28.6%

N#CCN/C(N)=N/[N+](=O)[O-]
inactive: [1] 2.9% | [2] -1.1% | [3] -2.1% | [4] -32.4% | [5] 9.55% | [6] -0.3%

O=C1NC(=O)C(c2cccc(N(CCCl)CCCl)c2)N1 (stereo not given)
inactive: [1] 29.8% | [2] 8% | [3] 14.9% | [4] 16.6% | [5] 27.6% | [6] 15.9%

c1ccc2c(c1)N=C1CCCC3CCCCC123 (stereo not given)
inactive: [1] 42.5% | [2] 33.5% | [3] 64.8% | [4] 36.8% | [5] 43.5% | [6] 45.2%

CCOP1(=O)N=C(NC2=NC(C(F)(F)F)(C(F)(F)F)N=C(C(F)(F)F)O2)N(C)C1(C)C (stereo not given)
inactive: [1] 9.2% | [2] 12.4% | [3] -13.8% | [4] 19.4% | [5] -4.2% | [6] -0.45%

NC(CCc1ccc(N(CCCl)CCCl)cc1)C(=O)O (stereo not given)
inactive: [1] 5.8% | [2] -5.35% | [3] 0.1% | [4] 4.85% | [5] -23.6% | [6] -0.2%

CN(C)[P+](On1nnc2ccccc21)(N(C)C)N(C)C
inactive: [1] 11.6% | [2] -1.9% | [3] 14% | [4] 12.3% | [5] -2.25% | [6] -0.95%

FC1(F)SC(Cl)C(Cl)(Cl)C1(F)F (stereo not given)
inactive: [1] 7.95% | [2] 10.9% | [3] 16.6% | [4] -12.9% | [5] 5.75% | [6] 24.2%

O=P1(N(CCCl)CCCl)NCCC(C(F)(F)F)O1 (stereo not given)
inactive: [1] 16.7% | [2] 7.95% | [3] 15.8% | [4] 1% | [5] 7.85% | [6] 18.2%

CN(C)C(=O)Oc1cccn(C)c1=O
inactive: [1] -1.35% | [2] -17.6% | [3] -8.95% | [4] -1.4% | [5] 5.2% | [6] -29.9%
